Data: ChEMBL document CHEMBL1127435 (J Med Chem, 1994)

Experiments:
[1] = Ratio between Ki values of D2 and S-3 receptors
[2] = Ratio between Ki values of D2 and S-2A receptors

| Ratio [1] | Ratio [2] | Compound |
| --- | --- | --- |
| 4.3 | 200 | CN1CCN(C2=Cc3cc(Cl)ccc3Cc3ccccc32)CC1 |
| 3.8 | 14 | CN1CCN(C2=Nc3cc(Cl)ccc3Oc3ccccc32)CC1 [ISOLOXAPINE] |
